TRPM1 prom inh: MITF TRPM1 promoter inhibition in SK-MEL-5 cells. inhibition, % at 12.5 µM. SK-MEL-5 TRPM1 promoter luciferase, 24 h. 0.83% of 330,000 active;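 active means mean inhibition across replicates of 60% or more, whatever share of single replicates reaches that level; inconclusive means some that reach 60%, reason not given; inactive means mean inhibition across replicates below 60%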
UUG fidelity: yeast start codon fidelity modulation | S. cerevisiae UUG-firefly luciferase reporter, luminescence/redox ratio | activity score, % at 18.7 µM | 0.13% of 350,000 active | AID 602363;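 active means replicate mean at a twofold rise or more, about +100% in these data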;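 further: firefly luciferase made from a UUG start codon reports start codon fidelity; reporter light over untreated wells divided by growth signal over untreated wells; some hits fall short of that in this replicate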
Wnt bcat act: activators of Wnt/beta-catenin signaling. AID 743398. 1.2% of 300,000 active. Wnt/beta-catenin reporter cell assay, activator, plate reader. activation, % at 9.35 µM; in the data active means activation above about 30%, passing the limit was not always enough; inconclusive means no clear call, values can overlap the other calls;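 further: 0% = neutral control wells and 100% = positive control wells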
MITF TRPM1 HTS: MITF TRPM1 promoter activation in melanoma cells. SK-MEL-5 TRPM1-promoter luciferase, 24 h; % of positive control, neutral wells = 0. activation, % at 12.5 µM. 0.75% of 300,000 active;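 active means mean activation of at least 80% with every replicate also reaching 80%; inconclusive means mean reaches 80% but some replicate falls short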;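 further: 0% = neutral control wells and 100% = parthenolide positive control wells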
miR-122 sensor: miR-122 inhibition in Huh7 cells | Huh7 miR-122 Renilla luciferase sensor, 48 h; neutral wells = 0, positive control = 100 | activation (reporter increase), % at 12.5 µM | 0.3% of 340,000 active | AID 602342;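 active means mean replicate activation score at least 90 and every replicate individually at or above 90; inconclusive means only one of the two criteria met; inactive means neither criterion met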;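 further: higher luciferase means less miR-122 activity so hits act as miR-122 inhibitors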
PGC1a acetyl inh: PGC1a acetylation modulation, inhibitor mode | inhibition, % at 15.6 µM | 0.17% of 350,000 active | U2OS PGC1a acetylation, AlphaScreen anti-acetyl-lysine; with virally co-expressed GCN5 acetyltransferase;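 active means every replicate shows inhibition of at least 40%; inconclusive means mean inhibition at least 40% but some replicate below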;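 further: 0% = neutral control wells and 100% = positive control wells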
* hit, by the source's call; ? = inconclusive; . = no result; [ ] = remark or other dose. The list is not random: actives were taken first. Their share in the collection is about 2.1%.

entry | TRPM1 prom inh | UUG fidelity | Wnt bcat act | MITF TRPM1 HTS | miR-122 sensor | PGC1a acetyl inh | molecule
1 | . | -1 | . | . | 6[16.7 µM] | . | C[C@@H]1CN([C@@H](C)CO)C(=O)c2cc(NC(=O)C3CCCCC3)ccc2O[C@H]1CN(C)Cc1ccncc1
2 | 9 | -13 | -1 | -10 | -5 | -8 | CC(OC(=O)c1cccs1)C(=O)NCCc1ccccc1 (stereo unspecified)
3 | 10 | 3 | 53* | -8 | 1 | -4 | CC(OC(=O)c1cccs1)C(=O)NCc1ccccc1 (stereo unspecified)
4 | -14 | -4 | 10 | 17 | 133* | -5 | CNC(=O)[C@@]1(C)C=C[C@@H](Cc2ccccc2)N1C(=O)OC
5 | -3 | -19 | . | 1 | . | . | COC(=O)N1[C@H](Cc2ccccc2)C=C[C@]1(C)C(=O)NCc1ccccn1
6 | -86 | . | . | 85* | . | . | CCn1ccc(C(=O)Nc2ccccc2Cl)n1
7 | -38 | . | . | 41 | . | . | CCn1ccc(C(=O)Nc2cccc(Cl)c2)n1
8 | . | 6 | . | . | -5[16.7 µM] | 15 | COc1ccc(S(=O)(=O)N(C)C[C@@H]2Oc3c(NC(=O)Nc4cccc5ccccc45)cccc3C(=O)N([C@@H](C)CO)C[C@@H]2C)cc1

Next part.
entry | TRPM1 prom inh | UUG fidelity | Wnt bcat act | MITF TRPM1 HTS | miR-122 sensor | PGC1a acetyl inh | molecule
9 | -3 | . | 2 | . | . | -2 | COc1cccc(-c2nc(COc3ccc(Cl)cc3Cl)no2)c1
10 | -148 | . | 54* | 149* | . | . | COc1ccccc1-c1nc(COc2ccc(Cl)cc2Cl)no1
11 | . | . | 45* | . | . | . | CC(C)NC(=O)C1C(c2ccc(C(F)(F)F)cc2)=Nc2ccccc2N1C(=O)c1ccccc1 (stereo unspecified)
12 | -144 | -21 | 27 | 143* | . | . | Cc1ccc(CNc2nc(C)cs2)cc1
13 | 7 | -14 | 0 | -5 | -4 | . | CC(=O)Nc1nc(C)cs1
14 | . | 7 | . | . | -3[16.7 µM] | 1 | COc1ccc(CN(C)C[C@H]2Oc3c(NS(=O)(=O)c4ccc(F)cc4)cccc3C(=O)N([C@H](C)CO)C[C@H]2C)cc1
15 | . | -14 | . | . | -5[16.7 µM] | 4 | CCCNC(=O)N1C[C@H](O)COC[C@@H]2O[C@@H](CC(=O)N[C@@H]3CCN(Cc4ccccc4)C3)CC[C@H]21
16 | -64 | . | ? | 66 | . | . | CCOC(=O)c1ccc(COc2ccc(C(C)C)cc2)o1

Sorted by count of non-hydrogen atoms (smallest number first): 3 of the compounds above.
entry | TRPM1 prom inh | UUG fidelity | Wnt bcat act | MITF TRPM1 HTS | miR-122 sensor | PGC1a acetyl inh | molecule
13 | 7 | -14 | 0 | -5 | -4 | . | CC(=O)Nc1nc(C)cs1
10 | -148 | . | 54* | 149* | . | . | COc1ccccc1-c1nc(COc2ccc(Cl)cc2Cl)no1
15 | . | -14 | . | . | -5[16.7 µM] | 4 | CCCNC(=O)N1C[C@H](O)COC[C@@H]2O[C@@H](CC(=O)N[C@@H]3CCN(Cc4ccccc4)C3)CC[C@H]21

Going on with the list:
entry | TRPM1 prom inh | UUG fidelity | Wnt bcat act | MITF TRPM1 HTS | miR-122 sensor | PGC1a acetyl inh | molecule
17 | -50 | -4 | 51* | 59 | -7 | -24 | CC(C)(C)c1ccc(OCc2ccc(C(=O)NCc3cccnc3)o2)cc1
18 | -61 | . | -1 | 58 | . | . | CC(C)(C)c1ccc(OCc2ccc(C(=O)NN)o2)cc1
19 | -3 | -16 | 33* | 5 | 1 | 3 | CCOc1ccc(OCc2ccc(C(=O)OCc3ccccn3)o2)cc1
20 | -85 | -32 | 38* | 88* | -2 | -10 | CC(C)(c1ccccc1)c1ccc(OCc2ccc(C(=O)O)o2)cc1
21 | . | -22 | . | . | -5[16.7 µM] | 2 | O=C(C[C@H]1CC[C@H]2[C@@H](COC[C@H](O)CN2Cc2cccc(F)c2)O1)NCCc1ccncc1
22 | . | -13 | . | . | . | 10 | CCCC(=O)Nc1ccc2c(c1)C(=O)N(C)C[C@H](OC)[C@@H](C)CN(Cc1cncnc1)[C@H](C)CO2
23 | -2 | -13 | 7 | 10 | 1 | 9 | COc1ccc(-c2cc(=O)c3ccccc3[nH]2)cc1
24 | -79 | -9 | 54* | ? | 41 | 6 | COc1ccc(-c2cc3ccccc3[nH]2)cc1

(more compounds)
entry | TRPM1 prom inh | UUG fidelity | Wnt bcat act | MITF TRPM1 HTS | miR-122 sensor | PGC1a acetyl inh | molecule
25 | -20 | -12 | 37* | 20 | 10 | -7 | Cc1ccc(O)c(-c2cc3ccccc3[nH]2)c1
26 | -92 | -12 | 28 | 96* | 11 | -7 | c1ccc(-c2cc3ccccc3[nH]2)cc1
27 | -44 | -6 | . | 46 | -1 | -7 | Clc1ccc2[nH]c(-c3ccccc3)cc2c1
28 | . | . | . | . | . | 1 | COCC(=O)N1[C@H](CO)[C@H](c2ccccc2)C12CN(C(=O)c1cccc(F)c1)C2
29 | . | . | . | . | 1[16.7 µM] | -7 | COc1ccc(CN(C)C[C@H]2Oc3ccc(NC(=O)NC(C)C)cc3C(=O)N([C@@H](C)CO)C[C@H]2C)cc1
30 | 84* | . | 26 | -82 | . | . | COc1ccccc1CNCC(O)Cn1c2ccccc2c2ccccc21 (stereo unspecified)
31 | 76* | -1 | -1 | -76 | -27 | . | CC[C@H]1CN2CCc3cc(OC)c(OC)cc3C2C[C@@H]1C[C@H]1NCCc2cc(OC)c(OC)cc21 (stereo partly specified)
32 | 70* | . | -9 | . | -12 | 34 | CCC1=C(CC2NCCc3ccccc32)CC2c3cc(OC)c(OC)cc3CCN2C1 (stereo unspecified)

The list goes on; the last 2 above are carried over.
entry | TRPM1 prom inh | UUG fidelity | Wnt bcat act | MITF TRPM1 HTS | miR-122 sensor | PGC1a acetyl inh | molecule
31 | 76* | -1 | -1 | -76 | -27 | . | CC[C@H]1CN2CCc3cc(OC)c(OC)cc3C2C[C@@H]1C[C@H]1NCCc2cc(OC)c(OC)cc21 (stereo partly specified)
32 | 70* | . | -9 | . | -12 | 34 | CCC1=C(CC2NCCc3ccccc32)CC2c3cc(OC)c(OC)cc3CCN2C1 (stereo unspecified)
33 | . | -10 | . | . | 1[16.7 µM] | -1 | COCC#Cc1cnc2c(c1)C(=O)N([C@@H](C)CO)C[C@H](C)[C@@H](CN(C)C(=O)C1CCCCC1)O2
34 | . | . | . | . | -1[16.7 µM] | -1 | CN1CCN(C(=O)C[C@@H]2CC[C@@H]3[C@H](COC[C@H](O)CN3C(=O)Cc3ccccc3)O2)CC1
35 | . | -5 | . | . | 5[16.7 µM] | 4 | O=C(C[C@H]1C[C@H]2c3cc(NC(=O)NC4CCCCC4)ccc3O[C@H]2[C@@H](CO)O1)NCC(F)(F)F
36 | . | -1 | . | . | -33[16.7 µM] | -7 | CCCNC(=O)Nc1ccc2c(c1)C(=O)N(C)[C@@H]1CC[C@H](CC(=O)NCC3CCCCC3)O[C@H]1CO2
37 | -92 | . | 12 | 92* | . | . | O=C(/C=C/c1cccs1)Nc1cccnc1
38 | -51 | . | 16 | 61 | . | 9 | O=C(/C=C/c1cccs1)Nc1nncs1
39 | . | -4 | 43* | . | 0 | -7 | O=C(/C=C/c1cccs1)NCc1cccs1
40 | -40 | . | . | 45 | -2 | . | Cc1ccc(/C=C/C(=O)NCc2cccs2)cc1

(further entries)
entry | TRPM1 prom inh | UUG fidelity | Wnt bcat act | MITF TRPM1 HTS | miR-122 sensor | PGC1a acetyl inh | molecule
41 | . | 12 | . | . | -42[16.7 µM] | 0 | COc1cccc(C(=O)N2C[C@H]3[C@@H](c4ccccc42)[C@H](CO)N3C(C)=O)c1
42 | 41 | . | -25 | -39 | 48 | -245 | O=Nc1ccc(O)c2ncccc12
43 | -9 | -81 | 0 | 15 | -6 | -5 | Oc1ccc(N=Nc2ccc3c(c2)OCCO3)c(O)c1
44 | 69* | -14 | 11 | -69 | 23 | -1 | COc1ccc(N=Nc2ccc(O)c3ncccc23)cc1
45 | 76* | -12 | -2 | -76 | 0 | 10 | Cc1ccccc1N=Nc1ccc(O)c2ncccc12
46 | 65* | . | -15 | -65 | . | 4 | Oc1ccc(N=Nc2ccc3c(c2)OCCO3)c2cccnc12
47 | 52 | -16 | -5 | -52 | -8 | . | COc1cccc(N=Nc2ccc(O)c3ncccc23)c1
48 | 72* | . | -6 | -69 | . | . | COc1ccc(C)cc1N=Nc1ccc(O)c2ncccc12

Continuation.
entry | TRPM1 prom inh | UUG fidelity | Wnt bcat act | MITF TRPM1 HTS | miR-122 sensor | PGC1a acetyl inh | molecule
49 | . | -15 | . | . | . | -1 | O=C(C[C@@H]1C=C[C@@H](NC(=O)c2ccc(F)cc2)[C@@H](CO)O1)NCCc1ccncc1
50 | . | . | . | . | . | 9 | C[C@H]1CCCCO[C@H](CN(C)CC2CC2)[C@@H](C)CN([C@@H](C)CO)C(=O)c2cc(NS(=O)(=O)c3ccccc3)ccc2O1
51 | -28 | 15 | 39* | 29 | 10 | . | O=C(COC(=O)CC1CCCC1)Nc1cc2c(cc1Cl)C(=O)c1ccccc1C2=O
52 | . | -17 | 2 | . | -7 | 4 | CC(C)c1ccc(NC(=O)COC(=O)CC2CCCC2)cc1
53 | -27 | -24 | 72* | . | 3 | -24 | O=c1oc2ccccc2cc1-c1nnc(NCc2ccco2)s1
54 | -25 | -1 | 1 | . | 4 | 3 | Nc1nnc(-c2cc3ccccc3oc2=O)s1
